Reference: patent US20230054318A1, “PERSONALIZED TUMOR VACCINE AND USE THEREOF FOR CANCER IMMUNOTHERAPY” (priority 2019, published 2023)

Assay: Human Equivalent Dose (HED) calculation based on body surface area
Excerpt: Provided herein are methods for calculating HED of the MBTA components based on body surface area.
See details from: Nair A B, Jacob S. A simple practice guide for dose conversion between animals and human. J Basic Clin Pharma 2016; 7:27-31
A formula to calculate HED is shown as follows:
HED(mg/kg)=Animal dose(mg/kg)Animal Km/Human Km

CCOCc1nc2c(N)nc3ccccc3c2n1CC(C)(C)O [R-848, Resiquimod]
HED (Mouse Km=3, Human Km=37): 0.0973 mg/kg | HED/Safety Factor (10) (human): 0.00973 mg/kg | Maximum Recommended Starting Dose (MRSD, assuming 60 kg adult) (human): 0.5838 mg/day
